For this assay, the target named is T1, PIP4K2A (Homo sapiens, UniProt P48426).
T1 sequence (P48426 1-406): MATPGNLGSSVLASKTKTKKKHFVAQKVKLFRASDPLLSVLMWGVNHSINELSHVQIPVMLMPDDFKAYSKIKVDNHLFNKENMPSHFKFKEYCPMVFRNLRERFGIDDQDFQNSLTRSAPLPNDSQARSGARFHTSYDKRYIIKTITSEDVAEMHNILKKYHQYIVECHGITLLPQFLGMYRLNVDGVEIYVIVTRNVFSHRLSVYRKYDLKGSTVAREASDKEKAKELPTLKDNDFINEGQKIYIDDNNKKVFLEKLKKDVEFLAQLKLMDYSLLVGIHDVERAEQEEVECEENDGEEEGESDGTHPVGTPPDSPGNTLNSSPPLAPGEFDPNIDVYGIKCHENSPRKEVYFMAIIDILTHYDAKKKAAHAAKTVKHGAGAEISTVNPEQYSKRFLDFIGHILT
Briefly: ADP-GLO assay on PIP4K2A. Type of assay: biochemical. How it is done:
After a further incubation of 40 minutes, 40 μl of Kinase Detection Buffer was added. After a further incubation of 40 min, the […] was read on […] ENVISION for 1 sec/well.

Among the data in patent publication US10695346B2, “4,6-pyrimidinylene derivatives and uses thereof” (Dana-Farber Cancer Institute, Inc., priority 2015, dated 2020) are IC50 values, retold here.

`CN(C)CC=CC(=O)Nc1ccc(C(=O)Nc2cccc(Nc3cc(-c4c[nH]c5ccccc45)ncn3)c2)cc1` (stereo in doubt) [THZ-CE-A-4-2, (Z)—N-(3-((6-(1H-indol-3-yl)pyrimidin-4-yl)amino)phenyl)-4-(4-(dimethylamino)but-2-enamido)benzamide] displayed an IC50 of 60 nM.
